## Apparent affinities of Ab-14 variants for a coronavirus HR2 peptide

Target peptide (SARS-CoV-2 spike, HR2 region): PDVDLGDISGINAS

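Phage display of a naive human antibody library on the peptide gave the parent. This is the validation round: designs drawn from the data on random variants, tested in the same kind of assay. Group labels follow the data file (Ctrl: baseline library sampled from a position-specific scoring matrix, with some repeated check sequences; Rand: our label for a block that the file lists under HC and that is probably the random mutants of the ten best first-round binders; En: ensemble of fine-tuned language models; HC: hill climbing; Gen: genetic algorithm; Gibbs: Gibbs sampling; a sequence that several methods proposed may carry one label only). In AlphaSeq, yeast of one mating type display the scFv and yeast of the other type display the target. After mating in shaken culture at 30 °C for 16 h, diploids were selected and their barcode pairs sequenced. A regression on co-assayed BCL2-family reference pairs converts the normalised counts of each replicate to an apparent Kd. The assay was run in six technical replicates.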

The variants keep the light chain, the linker and the frameworks of Ab-14 (scFv order VH, three GGGGS repeats, VL).
VH: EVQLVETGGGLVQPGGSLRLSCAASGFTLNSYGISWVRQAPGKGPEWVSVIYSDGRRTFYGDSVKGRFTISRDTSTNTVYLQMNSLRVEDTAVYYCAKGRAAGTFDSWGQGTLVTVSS
VL: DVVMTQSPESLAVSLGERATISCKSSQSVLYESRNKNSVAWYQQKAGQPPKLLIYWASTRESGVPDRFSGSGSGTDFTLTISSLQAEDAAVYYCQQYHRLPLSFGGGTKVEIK

Variants are written as CDR1, CDR2 and CDR3 of the heavy chain (limits as in the source). Parent: GFTLNSYGIS, VIYSDGRRTFYGDSVK, GRAAGTFDS. Variants here have more than six changes. Scale: log10 of Kd in nM, estimated from mating counts; low values are strong binders. Replicates are averaged; those with no signal do not enter the mean. "no signal" marks a missing value. The strain was present, yet no cells mated with the target were sequenced in any replicate, which points to weak or no binding. The parent sequence was in this pool as ten entries: three were never detected, three once, and four in most replicates, with averages from 0.34 to 2.37.

CDR-H1	CDR-H2	CDR-H3	group	mean, log10 nM	seen in
GFELEEYGIS	VIYADGQRTFYADNVK	GDVDTDVHY	En_Gibbs	no signal	0 of 6
GFDLNEYGIS	VIYADGVRTVYADSVK	GNNAGTFDI	En_Gen	-0.84	6 of 6
GFDLNEYGIS	VIYADGLRTAYTDSVK	GNNAGTFDV	En_Gen	-0.13	6 of 6
GFDLNEYGIS	VIYADGRRTAYSDSVK	GNTAGTFDV	En_Gen	-0.28	6 of 6
GFDLNEYGIS	VIYADGVRTAYADDVK	GGNAGTFDV	En_Gen	-0.10	5 of 6
GFILDEYGIS	VIYADGQRSAYKDSVK	GVDDANGVI	En_Gibbs	1.77	4 of 6
GFDLEDYGIS	VIYADGKRTFYADSVK	GEIAGTFDL	En_HC	no signal	0 of 6
GFDLNEYGIS	VIYADGRRTAYADDVK	GENAGTFDT	En_Gen	0.33	6 of 6
GFDLDEYGIS	VIYADGMRTAYADTVK	GNQAGTFDV	En_Gen	-0.10	6 of 6
GFDLEDYGIS	VIYADGMRTQYADSVK	GEAAGTFDL	En_HC	0.59	6 of 6
GFDLNEYGIS	VIYADGMRTFYADSVK	GQIAGTFDF	En_HC	-1.06	6 of 6
GFDLNEYGIS	VIYADGRRTFYADSVK	GENAGTFDM	En_Gen	-0.09	6 of 6
GFGLDEYGIS	VIYADGERKYYTDNVK	GHFGEIGIV	En_Gibbs	no signal	0 of 6
GMDLNEYGIS	VIYADGRRTAYINQVK	GSNSDTVSL	En_Gibbs	no signal	0 of 6
GFDLNEYGIS	VIYADGKRTAYTDSVK	GNTAGTFDV	En_Gen	-0.81	6 of 6
GFDLDEYGIS	VIYADGMRTAYADSVK	GEVAGTFDQ	En_Gen	-0.35	6 of 6
GQSLDDYGIS	VIYADGMRKAYVDDVK	GYVAGTFDI	En_Gibbs	-0.32	6 of 6
GFDLNEYGIS	VIYADGMRTAYSDSVK	GQNAGTFDM	En_Gen	no signal	0 of 6
GFDLNEYGIS	VIYADGRRTAYSDSVK	GEAGGTFDD	En_HC	0.21	6 of 6
GFDLNEYGIS	VIYADGMRTFYADDVK	GQNAGTFDV	En_Gen	0.05	6 of 6
GFDLNEYGIS	VIYADGVRTAYADSVK	GNTAGTFDM	En_Gen	-0.24	6 of 6
GFQLDEVGIS	VIYADGIRRAYKSKVK	GGNGGSFDL	En_Gibbs	1.98	5 of 6
GFSLDEMGIS	VIYADGQRTAYQASVK	GQNIVNVFV	En_Gibbs	no signal	0 of 6
GFDLNEYGVS	VIYADGFRTAYTDSVK	GNIFDLIMA	En_Gibbs	no signal	0 of 6
GFDINEYGIS	VIYADGRRTFYADSVK	GNNGGTFDL	En_HC	0.32	6 of 6
GFDLNEYGIS	VIYADGRRTAYDDSVK	GEAAGTFDM	En_HC	-0.48	6 of 6
GFDLNEYGIS	VIYADGVRTAYADSVK	GQNAGTFDV	En_Gen	-0.26	6 of 6
GFDLDEYGIS	VIYADGMRTAYADDVK	GEVAGTFDL	En_Gen	-0.22	6 of 6
GNDIEEYGIS	VIYADGQRVNAASQFK	GKQAGTFNL	En_Gibbs	no signal	0 of 6
GFDLNEYGIS	VIYADGMRSFYADNAK	GNAGIFAEV	En_Gibbs	no signal	0 of 6
GFDLEDYGIS	VIYADGMRTFYSDSVK	GEIAGTFDS	En_HC	-0.15	6 of 6
GFDLNEYGIS	VIYADGRRTFYADSVK	GNTAGTFLL	En_HC	-1.57	6 of 6
GFDLNEYGIS	VIYADGRRTSYIDSVK	GNVAGTFDI	En_HC	-0.16	6 of 6
GFDLNEYGIS	VIYADGMRSAYADSVK	GENAGTFDL	En_Gen	-0.13	6 of 6
GFDLDEYGIS	VIYADGSRTAYVDSVK	GENAGTFDV	En_Gen	0.21	1 of 6
GESLESYGIS	VIYADGMRTSYTNSVK	GVWAGTFMQ	En_Gibbs	0.21	6 of 6
KFDLEAYGIS	VIYADGVRTNYVDKVK	GDTGGMFDM	En_Gibbs	no signal	0 of 6
GFGLGEYGIS	VIYADGHRTNYSTSVK	GTIGGTFFQ	En_Gibbs	2.57	1 of 6
GFDLGEYGIS	VIYADGQRRAYIDAVK	GHSSVDYLA	En_Gibbs	3.90	1 of 6
GFDLEDYGIS	VIYADGRRTAYIDSVK	GELAGTFDS	En_HC	-0.16	6 of 6
GFDIDEYGIS	VIYADGMRTFYTDSVK	GEAAGTFDT	En_HC	1.37	6 of 6
GSSLDEYGIS	VIYADGQRVQYADTVK	GIQAGNVDV	En_Gibbs	no signal	0 of 6
GFNLDEFGIS	VIYADGIRTAYLDSFK	GENVNAVDT	En_Gibbs	no signal	0 of 6
GEDLSEYGIS	VIYADGERRSYANSVK	GGVSGNFSS	En_Gibbs	no signal	0 of 6
GFDLNEYGIS	VIYADGRRTAYIDSVK	GETAGTFDV	En_Gen	-0.32	6 of 6
GFDLNEYGIS	VIYADGSRTAYIDSVK	GNVAGTFDV	En_Gen	-0.64	6 of 6
GFDLNEYGIS	VIYADGKRTAYADSVK	GNLAGTFDV	En_Gen	-0.32	6 of 6
GFDLNEYGIS	VIYADGIRTAYSDSVK	GNVAGTFDI	En_Gen	0.11	6 of 6
GFDLDEYGIS	VIYADGVRTAYSDSVK	GGNAGTFDV	En_Gen	-0.82	6 of 6
GFDLNEYGIS	VIYADGMRTAYTDSVK	GETAGTFDT	En_Gen	-0.13	6 of 6
GFNLSEYGIS	VIYADGMRSEYADNVK	GHKGNAFID	En_Gibbs	no signal	0 of 6
GFDLDEYGIS	VIYADGARSFYTNKVK	GVTVGDNGT	En_Gibbs	no signal	0 of 6
GFDLNEYGIS	VIYADGRRTVYADSVK	GENAGTFDV	En_Gen	0.25	6 of 6
GFDLDEYGIS	VIYADGMRTAYTDSVK	GEVAGTFDQ	En_Gen	-0.29	6 of 6
GFDLNEYGIS	VIYADGMRTAYADNVK	GNEAGTFDV	En_Gen	0.64	6 of 6
GFDLDEYGIS	VIYADGKRTAYADSVK	GNVAGTFDI	En_Gen	-0.98	6 of 6
GFWLDEYGIS	VIYADGMRTAYKNSVK	GQFTYNFDV	En_Gibbs	no signal	0 of 6
GFGLGEYGIS	VIYADGTRAAYVTKVK	GSIAGTFFT	En_Gibbs	2.69	1 of 6
GFDLNEYGIS	VIYADGVRTAYADSVK	GQNAGTFDT	En_Gen	-0.38	6 of 6
GFNLDEYGIS	VIYADGRRTFYQDSVK	GEGAGTFDQ	En_HC	no signal	0 of 6
GFDLNEYGIS	VIYADGVRTAYIDSVK	GNVAGTFDM	En_Gen	-0.54	6 of 6
GFDLNEYGIS	VIYADGMRTYYADSVK	GENAGTFDL	En_Gen	-0.19	6 of 6
GFDLNEYGIS	VIYADGVRTAYVDDVK	GNVAGTFDV	En_Gen	-0.45	6 of 6
GFDLDEYGIS	VIYADGVRTAYSDSVK	GENAGTFDM	En_Gen	0.92	6 of 6
GDSLNEYGIS	VIYADGVRAAYADPVK	GENDGLFDQ	En_Gibbs	no signal	0 of 6
GFDLNEYGIS	VIYADGRRTFYADSVK	GHVAGTFVT	En_HC	-0.75	6 of 6
GFDLNEYGIS	VIYADGVRKSYADSVK	GNVAGTFDV	En_Gen	-0.44	6 of 6
GFDLNEYGIS	VIYADGRRTSYIDSVK	GNVAGTFDS	En_HC	-0.21	6 of 6
GFELNSYGIS	VIYSDGRRTFYGMTWK	FLAAHWFNS	Rand	no signal	0 of 6
GFDLNEYGIS	VIYADGMRTAYSDSVK	GHNAGTFDV	En_Gen	-0.80	6 of 6
GFDLNEYGIS	VIYADGQRTFYADSVK	GQLAGTFDV	En_HC	-0.54	6 of 6
GFTLDSYHIH	VIYADGRRTFYGDSVK	GMAAGVFES	Ctrl	2.20	1 of 6
GFNLNEYGIS	VIYADGMRTFYADSVK	GEVAGTFDV	En_HC	-0.52	6 of 6
GFDLNEYGIS	VIYADGMRTFYADSVK	GEIAGTFDF	En_HC	-0.41	6 of 6
GFDLNEYGIS	VIYADGMRTFYADSVK	GQVAGTFDV	En_Gen	-0.36	6 of 6
GFDLNEYGIS	VIYADGMRTFYADSVK	GNVAGTFDT	En_Gen	-0.62	6 of 6
GFDLNEYGIS	VIYADGRRTFYAESVK	GEAAGTFDV	En_HC	-0.57	6 of 6
GFDLDEYGIS	VIYADGRRTFYVDSVK	GNVAGTFDS	En_HC	-0.54	6 of 6
GFDLDEYGIS	VIYADGRRTAYSDSVK	GETAGTFDV	En_Gen	-0.32	6 of 6

The first 8 variants above that were never detected:

CDR-H1,CDR-H2,CDR-H3,group,"mean, log10 nM",seen in
GFELEEYGIS,VIYADGQRTFYADNVK,GDVDTDVHY,En_Gibbs,no signal,0 of 6
GFDLEDYGIS,VIYADGKRTFYADSVK,GEIAGTFDL,En_HC,no signal,0 of 6
GFGLDEYGIS,VIYADGERKYYTDNVK,GHFGEIGIV,En_Gibbs,no signal,0 of 6
GMDLNEYGIS,VIYADGRRTAYINQVK,GSNSDTVSL,En_Gibbs,no signal,0 of 6
GFDLNEYGIS,VIYADGMRTAYSDSVK,GQNAGTFDM,En_Gen,no signal,0 of 6
GFSLDEMGIS,VIYADGQRTAYQASVK,GQNIVNVFV,En_Gibbs,no signal,0 of 6
GFDLNEYGVS,VIYADGFRTAYTDSVK,GNIFDLIMA,En_Gibbs,no signal,0 of 6
GNDIEEYGIS,VIYADGQRVNAASQFK,GKQAGTFNL,En_Gibbs,no signal,0 of 6

The authors averaged sequences with at least three values out of six and counted those with two or fewer as poor binders. Empty control strains, which show no peptide, gave a signal in 1% of pairings with all heavy chain designs; the median was 2.08 and 95% of these signals were weaker than 0.84. No background was subtracted. A sequence measured in both rounds can read differently, since the two assays cover different ranges.

Data: MIT Lincoln Laboratory AlphaSeq set, Li et al. 2023, doi:10.1038/s41467-023-39022-2, as distributed in FLAb.